Test results as given in article PMC3199943, “Screening the MayBridge Rule of 3 Fragment Library for Compounds That Interact with the Trypanosoma brucei myo-Inositol-3-Phosphate Synthase and/or Show Trypanocidal Activity” (Molecular Biology International, 2011).

Target: T1, TbINO1 (Trypanosoma brucei brucei, UniProt Q5QQ46)
T1 sequence (Q5QQ46 1-528): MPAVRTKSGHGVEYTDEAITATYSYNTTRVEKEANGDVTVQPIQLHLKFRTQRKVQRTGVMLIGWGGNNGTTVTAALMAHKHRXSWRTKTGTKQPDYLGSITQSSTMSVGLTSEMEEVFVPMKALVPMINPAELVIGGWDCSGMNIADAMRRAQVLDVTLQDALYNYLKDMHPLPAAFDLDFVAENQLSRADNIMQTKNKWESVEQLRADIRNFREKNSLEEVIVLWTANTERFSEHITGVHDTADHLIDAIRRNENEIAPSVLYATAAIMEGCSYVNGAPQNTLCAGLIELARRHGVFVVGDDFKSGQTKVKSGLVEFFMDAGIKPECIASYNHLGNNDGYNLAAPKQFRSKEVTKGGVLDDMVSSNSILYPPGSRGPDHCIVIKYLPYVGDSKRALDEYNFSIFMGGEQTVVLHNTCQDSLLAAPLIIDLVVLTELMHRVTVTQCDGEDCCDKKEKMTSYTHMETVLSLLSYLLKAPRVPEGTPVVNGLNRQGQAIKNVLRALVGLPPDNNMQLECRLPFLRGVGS
Assay: biochemical
Conditions: read-out: TbIno1 Tm shift [°C]

Structure (SMILES): O=C(O)C1CCCNC1 (stereo not shown) [compound 91, 3-piperidinecarboxylic acid]
- ΔTm at 1000 µM: 1.69 ± 0.1 °C
